# Earlier results, collected in patent US8133893B2, “Trazodone and trazodone hydrochloride in purified form” (Aziende Chimiche Riunite Angelini Francesco A.C.R.A.F. …, priority 2007, dated 2012).
# Conditions: as reported in TOXNET, National Library of Medicine; cited from earlier work
substance,measurement,value
1-bromo-3-chloro-propane,genotoxicity,known genotoxic substances
